Measurements from ChEMBL document CHEMBL1138205, “Novel heterobivalent tacrine derivatives as cholinesterase inhibitors with notable selectivity toward butyrylcholinesterase” (J Med Chem, 2006).

Chains of the proteins cited; added tags and fusions are not shown. Lines headed by an entry give the natural chain unless they say otherwise; changes in a name come on top.
UniProt O42275: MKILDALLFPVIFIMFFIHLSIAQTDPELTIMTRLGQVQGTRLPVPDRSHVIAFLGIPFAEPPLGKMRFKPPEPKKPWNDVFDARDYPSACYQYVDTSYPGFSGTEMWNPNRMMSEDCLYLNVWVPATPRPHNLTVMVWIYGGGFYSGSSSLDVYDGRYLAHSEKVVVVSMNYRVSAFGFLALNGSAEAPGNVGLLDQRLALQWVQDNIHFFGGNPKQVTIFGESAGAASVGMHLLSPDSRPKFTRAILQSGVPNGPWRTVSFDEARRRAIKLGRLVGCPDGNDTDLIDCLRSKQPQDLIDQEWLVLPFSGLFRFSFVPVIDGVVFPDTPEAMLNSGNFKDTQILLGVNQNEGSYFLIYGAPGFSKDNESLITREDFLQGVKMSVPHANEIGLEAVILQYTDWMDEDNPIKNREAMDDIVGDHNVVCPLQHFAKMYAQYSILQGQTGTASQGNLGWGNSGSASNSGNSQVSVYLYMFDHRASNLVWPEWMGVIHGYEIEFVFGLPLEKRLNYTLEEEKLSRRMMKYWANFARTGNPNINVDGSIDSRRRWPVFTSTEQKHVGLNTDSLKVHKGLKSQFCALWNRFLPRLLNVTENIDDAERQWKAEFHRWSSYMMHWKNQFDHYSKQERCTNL

Biological target: Acetylcholinesterase (Electrophorus electricus, UniProt O42275)
Experiment: Inhibition of Electrophorus electricus AChE
How it was run: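 Ellman-type spectrophotometric assay at 412 nm in 100 mM sodium phosphate, 100 mM NaCl, pH 7.3, with DTNB. Enzymes: E. electricus AChE (soluble G4), recombinant T. californica AChE (Pichia pastoris, G4), recombinant human AChE (HEK 293, G2/G4), human plasma BChE (G4). Enzyme (~3 U/mL stock) and inhibitor preincubated 15 min at 25 °C. Acetylthiocholine (AChE) or butyrylthiocholine (BChE) then started the reaction. IC50 in duplicate from ≥4 inhibitor concentrations.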

COc1cc(CCC(=O)NNc2c3c(nc4ccccc24)CCCC3)cc(OC)c1OC
IC50: 294 nM
